{"source": "patent US8440641B2", "about": "“Phthalocyanine salt formulations” (Case Western Reserve University, priority 2009, dated 2013)", "key": {"[1]": {"experiment": "Qualitative solubility in representative organic solvents", "type": "physicochemical"}, "[2]": {"experiment": "Salt concentration in polar and nonpolar solvents (Table 2)", "type": "physicochemical"}}, "data": [{"smiles": "CN(C)CCC[Si](C)(C)O[Si-2]123(O)n4c5c6ccccc6c4N=C4c6ccccc6C(=[N+]41)N=c1c4ccccc4c(n12)=NC1=[N+]3C(=N5)c2ccccc21.O=c1[nH]cnc2c1ncn2C1OC(COP(=O)(O)O)C(O)C1O", "note": "[Compound 25, [HOSiPcOSi(CH3)2(CH2)3NH(CH3)2]^+[C4H3N4OC4H6O3CH2OPO3H]^−]", "values": [{"measurement": "solubility in CH2Cl2", "setting": "[1]; CH2Cl2, qualitative", "value": "soluble"}, {"measurement": "solubility in dimethylformamide", "setting": "[1]; dimethylformamide, qualitative", "value": "soluble"}, {"measurement": "solubility in ethanol", "setting": "[1]; ethanol, qualitative", "value": "soluble"}, {"measurement": "solubility in hexanes", "setting": "[1]; hexanes, qualitative", "value": "insoluble"}, {"measurement": "solubility in toluene", "setting": "[1]; toluene, qualitative", "value": "moderately soluble"}, {"measurement": "salt concentration, […] aqueous Tween 80", "setting": "[2]; […] aqueous Tween 80", "value": 0.274, "unit": "mM"}, {"measurement": "solubility in aqueous solution", "setting": "[2]; aqueous solution, in words", "value": "show solubility"}, {"measurement": "salt concentration, hexanes", "setting": "[2]; hexanes", "value": 0.000, "unit": "mM"}, {"measurement": "solubility in hexanes and mineral oil", "setting": "[2]; hexanes, mineral oil (Nujol), in words", "value": "little"}, {"measurement": "salt concentration, mineral oil", "setting": "[2]; mineral oil", "value": 0.002, "unit": "mM"}]}]}
